From patent publication US20140227357A1, “FILL FORMULATIONS AND CAPSULES AND METHOD OF USE TO AVOID MIGRATION OF FILL INTO OR THROUGH THE SHELL” (CAPSUGEL BELGIUM NV, priority 2011, published 2014)

What was measured:
[1] = 40° C. oven
[2] = Technical batch stability study, 2-butanol and 2-pentanone assay by gas chromatography; type: physicochemical; conditions: in Formulation 4, sealed LICAPS
[3] = Hygroscopicity test; type: physicochemical
[4] = Compatibility testing: softening/deformation of filled capsules after storage at 40° C./75% RH; type: physicochemical
Method: The same observation (softening) was confirmed at the 6 months time point.
Compatibility testing: Compatibility testing was executed and no softening /of the capsules was observed after 3 months storage at 40° C./75% RH.
Compatibility testing: Compatibility testing was executed according to the standard compatibility testing program described in the previous Examples.

[5] = demineralized water
[6] = www.chemicalbook.com; cited from earlier work
[7] = Mechanical robustness test (% broken capsules); type: physicochemical; conditions: for % Broken capsules after 3 weeks storage: size 3 LICAPS
Method: A mechanical robustness test was performed to evaluate the tendency for capsule brittleness when filled with 2-butanol as a function of the relative humidity of the ambient air.

[8] = 50 μL fill, after 3 months at 40° C./75% RH
[9] = 50 μL fill, after 3 weeks at 40° C./75% RH
[10] = 50 μL fill, after 6 months at 40° C./75% RH
[11] = 225 μL fill, after 3 months at 40° C./75% RH
[12] = 225 μL fill, after 3 weeks at 40° C./75% RH
[13] = 225 μL fill, after 6 months at 40° C./75% RH

Question: Which “weight of capsules (loss of fill)” value ([1]; 50 μL fill, CFS sealed size 3 LICAPS, in function of time) does the source give for 2-butanol [Formulation 2-butanol] here?
Answer: The value was “less pronounced than the one observed for the non sealed capsules”.

Question: And the “weight of capsules (loss of fill)” value ([1]; 225 μL fill, CFS sealed size 3 LICAPS, in function of time)?
Answer: The value was “small decrease in weight”.

Question: And the “weight of capsules (loss of fill)” value ([1]; 225 μL fill, non sealed size 3 LICAPS, after 5 days)?
Answer: Its value is “important decrease in weight”.

Question: What about the “assay, % label claim” value ([2]; 6 months at 25° C./60% RH in PE bags) of the same substance?
Answer: Its value is 101.3%.

Question: And the “assay, % label claim” value ([2]; 6 months at 25° C./60% RH in PET/Alu/PE bags)?
Answer: Its value is 100.5%.

Question: And the “assay, % label claim” value ([2]; 6 months at 40° C./75% RH in PET/Alu/PE bags)?
Answer: Its value is 99.7%.

Question: What about the “results of the hygroscopicity test” value ([3]; 50 μL fill, storage conditions below 30% RH and above 60% RH) of the same substance?
Answer: The value was “not within acceptable parameters”.

Question: What about the “results of the hygroscopicity test” value ([3]; 225 μL fill, storage conditions below 20% RH and above 55% RH) of the same substance?
Answer: The value was “not within acceptable parameters”.

Question: And the hygroscopic propensity ([3]; high relative humidity conditions)?
Answer: Its hygroscopic propensity is “hygroscopic propensity”.

Question: And the “interaction between fill and gelatin shell” value ([4]; 50 μL fill, 3 weeks time point, 40° C./75% RH)?
Answer: Its value is “No interaction was noticeable”.

Question: And the “softening of the capsules” value ([4]; 50 μL fill, size 3 LICAPS, 6 months time point, 40° C./75% RH)?
Answer: The value was “softening”.

Question: What about the “deformation of the capsules” value ([4]; 225 μL fill, size 3 LICAPS, 3 months time point, 40° C./75% RH) of the same substance?
Answer: The value was “deformation of the LICAPS® capsules was observed”.

Question: What about the “softening of the capsules” value ([4]; filled LICAPS capsules, after 3 months storage at 40° C./75% RH) of the same substance?
Answer: Its value is “softening of the capsules was observed”.

Question: What about the “% Acetaminophen dissolved at 45 min, Average” value [5, 8] of the same substance?
Answer: The value was 94.3%.

Question: What about the “% Acetaminophen dissolved at 45 min, Maximal” value [5, 8] of the same substance?
Answer: The value was 97.0%.

Question: And the “% Acetaminophen dissolved at 45 min, Minimal” value [5, 8]?
Answer: Its value is 91.7%.

Question: What about the “% Acetaminophen dissolved at 45 min, Average” value [5, 9] of the same substance?
Answer: Its value is 98.2%.

Question: What about the “% Acetaminophen dissolved at 45 min, Maximal” value [5, 9] of the same substance?
Answer: The value was 99.7%.

Question: And the “% Acetaminophen dissolved at 45 min, Minimal” value [5, 9]?
Answer: Its value is 95.0%.

Question: And the “% Acetaminophen dissolved at 45 min, Average” value [5, 10]?
Answer: Its value is 96.1%.

Question: And the “% Acetaminophen dissolved at 45 min, Maximal” value [5, 10]?
Answer: The value was 98.8%.

Question: And the “% Acetaminophen dissolved at 45 min, Minimal” value [5, 10]?
Answer: The value was 90.8%.

Question: What about the “% Acetaminophen dissolved at 45 min, Average” value [5, 11] of the same substance?
Answer: The value was 99.7%.

Question: What about the “% Acetaminophen dissolved at 45 min, Maximal” value [5, 11] of the same substance?
Answer: Its value is 99.7%.

Question: What about the “% Acetaminophen dissolved at 45 min, Minimal” value [5, 11] of the same substance?
Answer: Its value is 98.5%.

Question: What about the “% Acetaminophen dissolved at 45 min, Average” value [5, 12] of the same substance?
Answer: The value was 97.2%.

Question: And the “% Acetaminophen dissolved at 45 min, Maximal” value [5, 12]?
Answer: The value was 100.0%.

Question: And the “% Acetaminophen dissolved at 45 min, Minimal” value [5, 12]?
Answer: The value was 90.4%.

Question: And the “% Acetaminophen dissolved at 45 min, Average” value [5, 13]?
Answer: The value was 96.2%.

Question: And the “% Acetaminophen dissolved at 45 min, Maximal” value [5, 13]?
Answer: The value was 100.0%.

Question: And the “% Acetaminophen dissolved at 45 min, Minimal” value [5, 13]?
Answer: The value was 90.1%.

Question: What about the “hygroscopicity of the material” value [6] of the same substance?
Answer: The value was “hygroscopic material”.

Question: What about the “% Broken capsules after 3 weeks storage” value ([7]; 8% LOD, 50 μL fill) of the same substance?
Answer: The value was 42%.

Question: And the “% Broken capsules after 3 weeks storage” value ([7]; 8% LOD, 225 μL fill)?
Answer: The value was 75%.

Question: And the “% Broken capsules after 3 weeks storage” value ([7]; 10% LOD, 50 μL fill)?
Answer: The value was 25%.

Question: And the “% Broken capsules after 3 weeks storage” value ([7]; 10% LOD, 225 μL fill)?
Answer: Its value is 15%.

Question: And the “percentages of broken capsules” value ([7]; LOD at 12.6 and 15.4%, 50 μL fill)?
Answer: Its value is 20%.

Like-named read-outs stand apart in the source and are kept apart here.
